Legend:
[1] = molecular target: Prostaglandin G/H synthase 2 (Homo sapiens) (UniProt P35354); test: Inhibition of COX-2 (unknown origin) at 25 uM by fluorescence based analysis
[2] = Selectivity ratio of inhibition of COX2 (unknown origin) to inhibition of COX1 (unknown origin)

Protein sequences, listed by entry. Tags and fused reporters are not part of them.
UniProt P35354, whole entry: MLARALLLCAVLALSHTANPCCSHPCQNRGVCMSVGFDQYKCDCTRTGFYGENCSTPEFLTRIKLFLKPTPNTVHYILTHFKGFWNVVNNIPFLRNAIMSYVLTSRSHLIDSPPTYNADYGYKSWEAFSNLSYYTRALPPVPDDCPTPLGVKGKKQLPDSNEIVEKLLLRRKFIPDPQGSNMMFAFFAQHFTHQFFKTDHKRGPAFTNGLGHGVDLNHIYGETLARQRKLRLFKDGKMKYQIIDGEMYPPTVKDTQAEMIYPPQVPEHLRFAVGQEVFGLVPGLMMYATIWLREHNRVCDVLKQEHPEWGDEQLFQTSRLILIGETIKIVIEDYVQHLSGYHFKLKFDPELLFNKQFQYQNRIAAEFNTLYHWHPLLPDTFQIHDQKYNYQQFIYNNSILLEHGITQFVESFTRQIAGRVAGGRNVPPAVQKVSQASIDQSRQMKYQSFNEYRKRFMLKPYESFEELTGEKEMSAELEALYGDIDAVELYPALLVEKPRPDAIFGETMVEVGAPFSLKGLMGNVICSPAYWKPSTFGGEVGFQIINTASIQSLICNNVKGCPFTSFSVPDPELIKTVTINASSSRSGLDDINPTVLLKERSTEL

| SMILES | inhibition [1] | Selectivity ratio [2] |
| --- | --- | --- |
| OC[C@H]1O[C@@H](Cc2cc(-c3c[nH]c4ccccc34)on2)[C@H](O)[C@@H](O)[C@H]1O | 61% | – |
| COc1ccc(-c2nc(C(=O)Nc3cc(OC)c(OC)c(OC)c3)cs2)cc1 | – | 3.67 |

— ChEMBL document CHEMBL5523704, “Exploration of isoxazole analogs: Synthesis, COX inhibition, anticancer screening, 3D multicellular tumor spheroids, and molecular modeling” (Eur J Med Chem, 2024)
